This is an account of results in publication PMC12281477, “Live-Cell NanoBRET Assay to Measure AKT Inhibitor Binding to Conformational States of AKT” (ACS Chemical Biology, 2025).

The structures appear in SMILES notation.

Experiment [1] concerns T308 phosphorylation of Myr-AKT1-NL. Conditions: dose-response 100-0.00001 μM, 1 μM K5 tracer, presence and absence of BX-795.
Experiment [2] has as its system T308 and S473 phosphorylation of AKT1-NL. Conditions: dose-response 100-0.00001 μM, 1 μM K5 tracer, ± 1 μM BX-795.

As for `Cc1n[nH]c2ccc(-c3cncc(OCC(N)Cc4c[nH]c5ccccc45)c3)cc12` (centres unmarked) [A-443654], the “Phosphorylation of Myr-AKT1-NL (Western blot)” value in experiment [1] was “dose-dependent increase in T308 phosphorylation”. Besides, the “Phosphorylation of AKT1-NL (Western blot)” value in experiment [2] is “dose-dependent increase in T308 and S473 phosphorylation”.
